Results as given in patent US11918770B2, “Implants for localized drug delivery and methods of use thereof” (The Regents of the University of California, priority 2014, dated 2024).

Chains of the proteins cited; added tags and fusions are not shown.
UniProt P03372, whole entry: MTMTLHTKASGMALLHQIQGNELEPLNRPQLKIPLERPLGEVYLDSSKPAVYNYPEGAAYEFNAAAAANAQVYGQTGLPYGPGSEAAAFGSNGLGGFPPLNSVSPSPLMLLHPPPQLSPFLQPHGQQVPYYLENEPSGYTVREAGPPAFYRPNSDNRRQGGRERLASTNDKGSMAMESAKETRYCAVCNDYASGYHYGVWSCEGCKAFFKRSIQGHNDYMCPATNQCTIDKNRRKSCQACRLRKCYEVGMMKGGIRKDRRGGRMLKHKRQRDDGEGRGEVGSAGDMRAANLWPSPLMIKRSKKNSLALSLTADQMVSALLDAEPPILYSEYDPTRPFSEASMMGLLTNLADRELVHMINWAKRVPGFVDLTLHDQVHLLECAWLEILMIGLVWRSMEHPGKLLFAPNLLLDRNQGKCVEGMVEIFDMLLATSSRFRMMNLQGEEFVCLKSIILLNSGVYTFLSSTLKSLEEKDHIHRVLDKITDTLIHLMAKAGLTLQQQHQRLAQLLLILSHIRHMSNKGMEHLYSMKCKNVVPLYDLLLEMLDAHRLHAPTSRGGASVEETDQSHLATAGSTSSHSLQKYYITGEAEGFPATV

Molecular target: estrogen receptor (ER) (Homo sapiens, UniProt P03372)
Test: Western blot for ER and PR expression in MCF7 cells
Type: cell-based
Details: fulvestrant released from Silastic tubing
Experimental: Each sealed (10 cm) tube was immersed into a 10 cm culture tube containing 5 mL culture media (Dulbecco's Modified Eagle's medium (DMEM)+10% fetal bovine serum (FBS)+penicillin and streptomycin) approximating interstitial tissue surrounding the breast tissue. These tubes were set on a rocker in an incubator at 37° C. for 1, 2, 5, 10, 15, 21 and 30 days. After each time point media was collected and stored at −80° C. for further analysis for western blotting, viability/proliferation assay by MTS (3-(4,5-dimethylthiazol-2-yl)-5-(3-carboxymethoxyphenyl)-2-(4-sulfophenyl)-2H-tetrazolium) and quantitation by liquid chromatography-tandem mass spectrometry (LC-MS/MS). Additional iteration was to perform repeated washes on the same sealed tube and collect the culture medium at days 1, 2, 5, 10, 15, 21, and 30.
MCF-7 culture were propagated and seeded in 6 cm dishes at 300,000 cells per dish and allowed to adhere overnight as a monolayer. […] The drug concentrations and biological effects of the drug eluted from specific tubes were evaluated by Mass spectroscopy, Western Blot analysis and antiproliferative methods after exposure for 3 days.
The medium was then used to culture MCF7 cells for 72 h, and the cells were assayed for proliferation by MTS assay (Panel A) and harvested for protein and western blotted for ER and PR expression (Panel B).

C[C@]12CC[C@@H]3c4ccc(O)cc4C[C@@H](CCCCCCCCC[S+]([O-])CCCC(F)(F)C(F)(F)F)[C@H]3[C@@H]1CC[C@@H]2O (some centres unmarked) [fulvestrant]
duration of sustained drug release sufficient to inhibit ER and PR expression (daily washout, medium harvested every 24 hours): at least 28 days | duration of ER inhibition / down-regulation of ER expression (MCF7 cells): > 12 weeks
